Experimental data published in patent publication US20190367567A1 (priority 2016, published 2019).

System: human erythrocytes
Experiment: Human RBC hemolysis (toxicity)
Details: at 160 μM

SMILES: CC[C@H](C)[C@H](N)C(=O)N1CCC[C@H]1C(=O)N[C@@H](C)C(=O)N[C@@H](CCCNC(=N)N)C(=O)NCC(=O)N[C@@H](C)C(=O)N[C@@H](Cc1ccccc1)C(=O)N[C@H](C(=O)N[C@@H](CC(N)=O)C(=O)NCC(=O)N[C@@H](CCCNC(=N)N)C(=O)N[C@@H](Cc1c[nH]c2ccccc12)C(=O)N[C@@H](CC(=O)O)C(=O)N[C@@H](CO)C(=O)N[C@@H](CCC(N)=O)C(=O)N[C@@H](CS)C(=O)N[C@@H](Cc1c[nH]cn1)C(=O)N[C@@H](CCCNC(=N)N)C(=O)N[C@@H](Cc1ccccc1)C(=O)N[C@@H](CO)C(=O)N[C@@H](CC(N)=O)C(=O)NCC(=O)N[C@@H](C)C(=O)N[C@H](C(=O)N[C@@H](C)C(=O)N[C@@H](CS)C(=O)N[C@@H](C)C(=O)O)[C@@H](C)CC)[C@@H](C)CC
- lysis of erythrocytes: 20%
